Experiment [1] has as its target adenovirus terminal protein-thioredoxin fusion protein (TP–Trx), bacterially expressed (adenovirus (serotype not given)). Nature of the experiment: AlphaScreen or HTRF; 30 nM TP–Trx (or Trx tag alone) on nickel NTA donor beads, serial dilutions of GST-tagged importins or GST control on GST acceptor beads; 0.5% BSA added, dilutions in PBS, room temperature in the dark; one-phase association fit.

Experiment [2] shares this target.

In experiment [1], “Imp α/β1 heterodimer (GST-Imp α2 with GST-cleaved Imp β1) (from UniProt P52293 1-529; P70168 1-876) (complex)” displayed a Kd of 59 nM. Further, in experiment [2], the Nf/Cf of TP–Trx–AF594 microinjected into HeLa cells incubated with ivermectin (30 µM), an Imp α/β inhibitor; 1.62 with DMSO came out at 0.86.

These data come from article PMC8036708.
